Assay results from US20130130985A1.

Sequences of proteins named here, by UniProt entry; tags and fusion partners are left off. A change or cut given only in a name is not applied to a line headed by its entry.
UniProt P37288, whole entry: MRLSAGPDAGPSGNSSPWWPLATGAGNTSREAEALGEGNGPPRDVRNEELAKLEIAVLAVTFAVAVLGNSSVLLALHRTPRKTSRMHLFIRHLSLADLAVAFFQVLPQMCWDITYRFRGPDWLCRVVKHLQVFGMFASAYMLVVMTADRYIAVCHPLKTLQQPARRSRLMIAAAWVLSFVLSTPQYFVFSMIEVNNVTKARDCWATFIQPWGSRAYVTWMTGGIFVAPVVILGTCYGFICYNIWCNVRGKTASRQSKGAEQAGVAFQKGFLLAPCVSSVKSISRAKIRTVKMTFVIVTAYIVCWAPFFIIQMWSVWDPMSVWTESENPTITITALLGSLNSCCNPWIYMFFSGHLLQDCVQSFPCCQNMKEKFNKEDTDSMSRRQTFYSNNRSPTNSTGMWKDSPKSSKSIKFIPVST
UniProt P30559: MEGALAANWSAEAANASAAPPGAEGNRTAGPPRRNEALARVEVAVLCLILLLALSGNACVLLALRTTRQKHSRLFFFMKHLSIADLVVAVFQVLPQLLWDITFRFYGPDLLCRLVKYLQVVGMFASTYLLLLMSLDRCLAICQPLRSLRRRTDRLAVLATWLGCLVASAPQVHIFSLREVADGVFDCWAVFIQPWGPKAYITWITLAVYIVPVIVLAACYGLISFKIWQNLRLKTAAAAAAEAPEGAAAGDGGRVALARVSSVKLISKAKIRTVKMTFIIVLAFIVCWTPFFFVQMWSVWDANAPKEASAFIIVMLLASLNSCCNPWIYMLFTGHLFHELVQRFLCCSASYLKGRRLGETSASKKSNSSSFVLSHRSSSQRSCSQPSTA

Assays:
[1] = biological target: human vasopressin V1a receptor (human) (UniProt P37288); assay: radioligand displacement (125I-V1a linear antagonist), SPA beads, COS-1 membranes
[2] = biological target: human vasopressin V1a receptor (human) (UniProt P37288); assay: cell-based or functional assay
[3] = biological target: human oxytocin receptor (human) (UniProt P30559); assay: cell-based or functional assay
[4] = biological target: human oxytocin receptor (human) (UniProt P30559); assay: radioligand displacement (3H-OT), SPA beads, COS-1 membranes

## [CH2-S]-OT (peptide)
[1]
  IC50: 9.8 nM
[2]
  EC50, IP-One HTRF assay: 263 nM
[3]
  EC50, IP-One HTRF assay: 32 nM
[4]
  IC50: 3.1 nM
